Ab-14 heavy chain CDR variants: yeast mating affinities

Target: peptide PDVDLGDISGINAS, taken from heptad repeat 2 (HR2) of SARS-CoV-2 spike.

Ab-14 is the parent antibody, in scFv form: VH, then a 15-residue (Gly4Ser)3 linker, then VL. The light chain is unchanged in all variants.
VH: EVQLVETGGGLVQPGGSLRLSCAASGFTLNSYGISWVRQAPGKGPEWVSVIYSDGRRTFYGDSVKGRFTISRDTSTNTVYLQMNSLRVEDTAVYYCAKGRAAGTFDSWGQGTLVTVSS
VL: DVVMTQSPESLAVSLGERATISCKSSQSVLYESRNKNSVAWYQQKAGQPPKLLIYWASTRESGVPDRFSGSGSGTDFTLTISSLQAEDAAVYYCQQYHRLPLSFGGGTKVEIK

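Phage display of a naive human antibody library on the peptide gave the parent. In library AAYL49, one, two or three CDR residues were substituted; doubles and triples were drawn at random. The scFvs were displayed on barcoded MATa yeast, the peptide on MATalpha yeast. After mating in shaken culture at 30 °C for 16 h, diploids were selected and their barcode pairs sequenced. A regression on co-assayed BCL2-family reference pairs converts the normalised counts of each replicate to an apparent Kd. Each pool was mated in three replicate cultures.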

Variants are written as CDR1, CDR2 and CDR3 of the heavy chain (limits as in the source). Parent: GFTLNSYGIS, VIYSDGRRTFYGDSVK, GRAAGTFDS.
The read-out is the apparent dissociation constant on a log10 scale (nM): the lower, the stronger.
"nd" means that the variant was in the library but no mating with the target was seen in that replicate; the authors take this as a sign of poor binding, and no number exists.
Three control strains display no target. For library AAYL49, 15% of the pairings with them gave a signal, with a median of 4.06 and one signal in twenty below 2.83, so weak values seen in few replicates may be background. For each scFv, signals with the empty controls are counted beside the result, with their mean in brackets.

CDR-H1	CDR-H2	CDR-H3	log10 Kd (nM) by replicate	empty controls
GFWLASYGIS	VIYSDGRETFYGDSVK	GRAAGTFDS	nd / 2.94 / nd	1/9 (2.90)
GFTLNSYSIS	VIYSDGRRTFYGDSVK	GRAATTFDS	nd / nd / nd	0/9
GFTLNSYGIS	VIYSDGRRTFYGIPVK	GRAAGTFDW	nd / nd / nd	1/9 (5.50)
LFTLNSYGIS	VIYSDGRREFYTDSVK	GRAAGTFDS	3.12 / 2.59 / 2.86	4/9 (4.11)
GDTLNSFGIS	VIYSDGRRTFYIDSVK	GRAAGTFDS	1.52 / 1.55 / 1.55	3/9 (4.36)
GFTLNSYAIS	VIYSDGRRTFYGDSVK	GRAAWTVDS	nd / nd / nd	1/9 (2.83)
GFTLNSYGIS	VIYSDWRRTFYGDSVK	GRAANTFYS	nd / nd / nd	0/9
GFTLNSYGIS	VIYSDGRNTFYGDHVK	GRAAGTFDS	3.67 / nd / nd	1/9 (4.12)
GFTLNSYGIS	VIYDDGRRTFAGDSVK	GRAAGTFFS	nd / 4.83 / 4.32	5/9 (4.23)
GFTLNTYGIS	VIYSDGRRTFYADSVK	GRAAGTADS	5.66 / nd / nd	3/9 (4.18)
CFTLNSYGIS	VIYSDGRRTFYGDSHK	GRAAHTFDS	nd / nd / nd	0/9
GFTLNSYGES	VIYSDGRRTFYGDSVK	GRAAGTWDS	nd / nd / nd	0/9
GATLNSYGIS	VIYSDGRRTFYGNSVK	GFAAGTFDS	nd / 4.33 / nd	2/9 (4.30)
GFTLNSYGIS	VIYSDGRLTFYGDSVK	GRAGGTFSS	nd / 3.04 / nd	1/9 (3.38)
GFTLNSYGIS	VIHSDGRRTFYGDRVK	GRAAGTFDS	nd / 2.86 / nd	1/9 (4.00)
GFTLDSYGIS	VIYSDGRRTFYGDSVK	GRAAGTFDS	nd / nd / 2.72	0/9
FFTLNSYGIS	VIYSDGYRTFYGDSVK	GRAMGTFDS	nd / nd / 4.97	0/9
GFTLNSYGIS	VIYSVMRRTFYGDSVK	GRAAGVFDS	nd / nd / 4.96	1/9 (4.16)
GFTLNSYGIS	VIHSKGRRTFYGDSVK	GRAAGTFDA	nd / nd / nd	1/9 (2.23)
GFTLNGYGIS	VIYSDGRRTFYGDCVK	GTAAGTFDS	2.56 / 4.91 / 2.80	3/9 (3.94)
GFTLNSFGIS	VIYSDGIRTFYGDYVK	GRAAGTFDS	3.33 / 3.02 / 2.99	7/9 (4.51)
GFTLNSYVIS	VIYSDGRRTFMGDSFK	GRAAGTFDS	nd / nd / nd	3/9 (3.23)
GFTLNLRGIS	VIYSDGRRTFFGDSVK	GRAAGTFDS	nd / nd / nd	0/9
GFTLNSYGIS	VIYSPGRRTFYGDSLK	GRPAGTFDS	nd / nd / nd	3/9 (4.29)
GFTLNSSGIS	VIYSDGRRTFYGDSVK	GRAAFTFDE	nd / 2.36 / nd	1/9 (2.30)
PFTLNSYGIS	VIYSDGRRTNYGDSVP	GRAAGTFDS	nd / nd / nd	0/9
GFALNSYGIS	VIYSDGRRTFYGDSVK	GRAAATFDS	1.92 / 1.66 / 1.73	3/9 (3.72)
GFTWNSYGIS	VIYSDGRRTFRGDFVK	GRAAGTFDS	nd / nd / nd	0/9
GFTLNSYGIS	VHYSDGRRTCYGDSVK	GRAAGTFDS	nd / nd / nd	0/9
MFTLNSYGIS	VIYSDGRCTFYGDNVK	GRAAGTFDS	nd / 4.31 / nd	0/9
GFTSSSYGIS	VIYSDGRRTFYGDSVK	TRAAGTFDS	nd / 4.59 / nd	3/9 (4.13)
GFTLNSYGIS	VIYSDGRRTFYGDSVK	GMAAGSFGS	4.53 / 5.49 / 4.61	1/9 (4.11)
GFTLNSYGIS	VIYSDGRRTLYGDSFK	GRAAGTSDS	nd / nd / 4.57	1/9 (3.54)
GFTLNSYGIS	YIYMDGRRTFYGDSVK	GRAAGNFDS	nd / nd / nd	5/9 (5.03)
GFTLNSYGIS	VIYSDGRRTFYGDGVK	GRAAGETDS	nd / nd / nd	0/9
GFTLNSKGQS	VIYSDGRRTFYGDSVK	GRAAGKFDS	nd / nd / nd	0/9
GFTLRSYGDS	VIYSDGRRTFYGDSVK	GRPAGTFDS	nd / nd / nd	0/9
GRLLNSYGIS	VIYSDGRRTFYGDSVK	GRAAGTFDS	nd / nd / nd	0/9

The first 5 entries again:

CDR-H1	CDR-H2	CDR-H3	log10 Kd (nM) by replicate	empty controls
GFWLASYGIS	VIYSDGRETFYGDSVK	GRAAGTFDS	nd / 2.94 / nd	1/9 (2.90)
GFTLNSYSIS	VIYSDGRRTFYGDSVK	GRAATTFDS	nd / nd / nd	0/9
GFTLNSYGIS	VIYSDGRRTFYGIPVK	GRAAGTFDW	nd / nd / nd	1/9 (5.50)
LFTLNSYGIS	VIYSDGRREFYTDSVK	GRAAGTFDS	3.12 / 2.59 / 2.86	4/9 (4.11)
GDTLNSFGIS	VIYSDGRRTFYIDSVK	GRAAGTFDS	1.52 / 1.55 / 1.55	3/9 (4.36)

Data: MIT Lincoln Laboratory AlphaSeq set, Engelhart et al. 2022, doi:10.1038/s41597-022-01779-4, as distributed in FLAb.